Earlier results on one compound are cited in patent US20160058752A1, “TOPICAL […]-AFFECTIVE (TPNA) THERAPY FOR N[…]” (AFGIN PHARMA, LLC, priority 2014, published 2016).

This data set deals with opiate receptors on nerve endings. The following applies: compounded in cold cream, applied locally to the skin at areas of pain; cited from earlier work.

For `CN1CC[C@]23c4c5ccc(O)c4O[C@H]2[C@@H](O)C=C[C@H]3[C@H]1C5` [morphine], the pain relief result is “provided relief”.
